Laboratory results: US20230124013A1, “USE OF CONJUGATES COMPRISING TUMOUR-SELECTIVE LIGANDS AND GROUPS CAPABLE OF RELEASING CARBON MONOXIDE (CO), FOR EXERTING IMMUNOMODULATORY EFFECTS IN CANCER TREATMENT” (Instituto de Medicina Molecular João Lobo Antunes, priority 2020, published 2023)
“Also recorded” adds a separate entry of the source.

Tests used:
[1] = system: CT26 tumours; assay: CT26 tumours in immunocompromised NSG mice; assay type: in vivo; conditions: daily treatment, vs rHSA-DMSO
[2] = system: CTLA-4; assay: Flow cytometry of tumour-infiltrating T cells: CTLA-4 expression; assay type: in vivo, BALB/c mice; conditions: CT26, BALB/c
[3] = biological target: tumour-associated macrophages and monocytes; assay: Flow cytometry of the myeloid compartment in CT26 tumours; assay type: in vivo, BALB/c mice
[4] = system: tumour-infiltrating lymphocytes; assay: Flow cytometry of tumour-infiltrating lymphocytes and TNF-α/IFNγ-producing cells; assay type: in vivo, BALB/c mice; conditions: CT26 tumours, BALB/c
[5] = system: CT26 cells
[6] = system: BM cells; assay: Cytotoxicity when added at the same time as BM cells; assay type: cell-based, C57BL/c mice; conditions: 5 or 10 μM
[7] = Carboxyhaemoglobin (CO-Hb) levels in circulation after i.v. injection; assay type: in vivo, mice; conditions: intravenous administration; 30 minutes after i.v. injection
[8] = system: PD-1; assay: Flow cytometry of tumour-infiltrating T cells: PD-1 expression; assay type: in vivo, BALB/c mice; conditions: CT26, BALB/c
[9] = system: CT26 cells; assay: Live-imaging of CO release with COP-1 in CT26 cells; assay type: cell-based, mouse; conditions: CT26 cells incubated 30 minutes with conjugate; imaged up to 60 minutes after COP-1
[10] = CO biodistribution in mice (CO level determination in tissues); assay type: in vivo
[11] = system: CT26 tumours; assay: CT26 colon carcinoma tumour growth and survival in BALB/c mice; assay type: in vivo; conditions: vs rHSA-DMSO
[12] = system: bone marrow-derived macrophages; assay: BMDM macrophage polarisation (M1, M2a, M2c); assay type: cell-based, C57BL/c mice; conditions: BMDM polarised 24 h
[13] = system: MC38 cells; assay: MC38 colon carcinoma model in C57BL/c mice; assay type: in vivo
[14] = system: IL-20; assay: Protein quantification of cytokines and chemokines in tumours; assay type: in vivo, mice; conditions: after treatments; vs rHSA-DMSO, n=3
[15] = system: differentiated BMDMs; assay: Cytotoxicity assay of differentiated BMDMs; assay type: cell-based, C57BL/c mice; conditions: read-out: G150
[16] = system: CT26 tumours; assay: CD4 and CD8 T cell depletion in CT26 tumour-bearing BALB/c mice; assay type: in vivo; conditions: depleting antibodies
[17] = Toxicology and histology scores in tissues of treated mice; assay type: in vivo
[18] = system: bone marrow-derived macrophages; assay: Bone marrow-derived macrophage (BMDM) differentiation culture; assay type: cell-based, C57BL/c mice

Substance: rHSA-CORM: artificial albumin metalloprotein: recombinant human serum albumin (Recombumin) metalated with CORM-3, carrying Ru(CO)2 groups
- survival [1]: no significant difference
- tumour size [1]: no significant difference
- expression of CTLA-4 in T cells [2]: reduced
- Ki-67 expression in tumour macrophages ([3]; in vivo): reduced
- abundance of neutrophils in tumours ([3]; vs rHSA-DMSO): increased the abundance
- abundance of TAMs in tumours ([3]; vs rHSA-DMSO, n=4): reduce the abundance
- abundance of monocytes in tumours ([3]; vs rHSA-DMSO, n=4): reduce the abundance
- TNF-α- and IFNγ-producing CD8 and NK cells [4]: increase
- tumour-infiltrating lymphocyte abundance [4]: not having differences
- cell viability (direct cytotoxicity) [5]: no significant difference
- cell death in cultures [6]: near-complete cell death
- formation of CO-Hb species in blood [7]: did not observe any increase
- expression of PD-1 in T cells [8]: reduced
- CO accumulation in tumour cells (COP-1 live imaging) [9]: accumulate in tumour cells over time
- CO delivery to tumours [10]: specifically delivering significant amounts of CO to tumours
- CT26 tumour growth ([11]; BALB/c, daily i.t. 30 mg kg^−1): slowed
- inguinal lymph node (iLN) size neighbouring tumours ([11]; CT26, BALB/c, daily i.t. 30 mg kg^−1, day 13): some swelling; also recorded: larger
- survival ([11]; CT26, BALB/c, daily i.t. 30 mg kg^−1, p=0.0034): significantly improved
- tumour size at day 13 ([11]; CT26, BALB/c): considerably smaller
- expression of M1, M2a and M2c lineage markers [12]: reducing the expression
- anti-tumour effectiveness (tumour weight) [13]: equally effective
- level of IL-20 in tumours [14]: dramatic reduction; also recorded: completely abrogated
- IC50 [15]: 80 µM
- anti-tumour effect after CD4 T cell depletion [16]: CD4 T cells were redundant
- anti-tumour effect after CD8 T cell depletion [16]: depletion of CD8 T cells reversed the effects
- metastasis: tumour cells in organs (histology scores) ([17]; tumour-bearing treated mice): no tumour cells were detected in the organs
- signs of toxicity in tissues ([17]; vs rHSA-DMSO treated mice): nor have we detected any given signs of toxicity
- macrophage proliferation (Ki-67) ([18]; BMDM in vitro, day 2 and 6 of differentiation): No differences
- number of cells after macrophage differentiation ([18]; BMDM in vitro, day 6): reduction of the number of cells
- monocyte-to-macrophage differentiation ([18]; conjugate added 24 h after seeding, 1 μM): no differences
